The NIST ThermoML archive (doi:10.1016/j.jct.2011.06.006)

Assay: xn = mol fraction of the nth substance listed
Conditions: Liquid, Vibrating tube method

CCCCOCCCC [dibutyl ether] + CCCCO
mass density [kg/m3]
Conditions	293.15 K	313.15 K	333.15 K	353.15 K	373.15 K	393.15 K
100 kPa, x1 = 0.1553	800	783.9	767.7	749.5	730.5	–
100 kPa, x1 = 0.3249	791.5	775	758.2	739.7	720.4	–
100 kPa, x1 = 0.4979	784.1	767.1	749.9	731.2	711.9	–
100 kPa, x1 = 0.6748	777.8	760.6	743.2	724.5	704.9	–
100 kPa, x1 = 0.8501	772.4	755	737.4	718.7	699.6	–
10000 kPa, x1 = 0.1553	807.6	792	776.6	758.7	742.1	724.2
10000 kPa, x1 = 0.3249	799	783.2	767.6	750.5	732.7	714.5
10000 kPa, x1 = 0.4979	791.9	775.8	759.8	742.4	725	706.9
10000 kPa, x1 = 0.6748	785.8	769.5	753.4	736.1	718.4	700.7
10000 kPa, x1 = 0.8501	780.6	764.2	747.8	730.5	713.4	696.2
20000 kPa, x1 = 0.1553	814.4	799.3	784.7	768.9	752.6	735.9
20000 kPa, x1 = 0.3249	805.8	790.8	776.1	760.1	743.7	726.8
20000 kPa, x1 = 0.4979	799.1	783.7	768.5	752.4	736.3	719.7
20000 kPa, x1 = 0.6748	793.1	777.5	762.5	746.3	730.1	713.8
20000 kPa, x1 = 0.8501	788	772.4	757.1	741	725.3	709.5
30000 kPa, x1 = 0.1553	820.6	806.3	792.2	777.1	762	745.8
30000 kPa, x1 = 0.3249	812.6	797.9	783.8	768.7	753.4	737.1
30000 kPa, x1 = 0.4979	805.5	791	776.5	761.2	746.1	730.3
30000 kPa, x1 = 0.6748	799.7	785	770.6	755.3	740.3	724.7
30000 kPa, x1 = 0.8501	794.8	780	765.4	750.2	735.7	720.6
40000 kPa, x1 = 0.1553	826.4	812.5	799	784.6	770	755.2
40000 kPa, x1 = 0.3249	818.2	804.3	790.9	776.5	761.8	746.9
40000 kPa, x1 = 0.4979	811.7	797.6	783.8	769.2	754.6	740.3
40000 kPa, x1 = 0.6748	806	791.8	778	763.5	749.1	734.9
40000 kPa, x1 = 0.8501	801.1	786.9	773	758.5	744.6	730.9
50000 kPa, x1 = 0.1553	831.9	818.5	805.4	791.6	777.5	763
50000 kPa, x1 = 0.3249	823.8	810.4	797.5	783.6	769.5	754.9
50000 kPa, x1 = 0.4979	817.4	803.9	790.5	776.6	762.6	748.6
50000 kPa, x1 = 0.6748	811.7	798.2	784.9	771	757.2	743.3
50000 kPa, x1 = 0.8501	807	793.4	780	766.1	752.8	739.3
60000 kPa, x1 = 0.1553	837	824	811.3	797.9	784.5	770.6
60000 kPa, x1 = 0.3249	829	816.1	803.6	790.2	776.7	762.6
60000 kPa, x1 = 0.4979	822.6	809.7	796.7	783.2	769.9	756.6
60000 kPa, x1 = 0.6748	817.2	804.1	791.3	777.8	764.7	751.3
60000 kPa, x1 = 0.8501	812.4	799.4	786.4	773	760.4	747.5
70000 kPa, x1 = 0.1553	841.9	829.4	816.8	803.9	790.9	777.6
70000 kPa, x1 = 0.3249	833.9	821.6	809.2	796.3	783.4	769.8
70000 kPa, x1 = 0.4979	827.8	815.4	802.5	789.5	776.7	763.8
70000 kPa, x1 = 0.6748	822.3	809.8	797.2	784.2	771.6	758.7
70000 kPa, x1 = 0.8501	817.7	805.2	792.4	779.5	767.4	754.9
80000 kPa, x1 = 0.1553	846.7	834.3	822.2	809.7	796.9	784.2
80000 kPa, x1 = 0.3249	838.8	826.6	814.7	802	789.5	776.6
80000 kPa, x1 = 0.4979	832.6	820.5	808.2	795.6	783	770.7
80000 kPa, x1 = 0.6748	827.3	815	802.9	790.4	777.9	765.7
80000 kPa, x1 = 0.8501	822.7	810.5	798.2	785.7	773.8	762
90000 kPa, x1 = 0.1553	851	839	827.5	815	802.7	790.1
90000 kPa, x1 = 0.3249	843.2	831.5	820.1	807.5	795.4	782.7
90000 kPa, x1 = 0.4979	837.1	825.4	813.7	801.2	789	776.9
90000 kPa, x1 = 0.6748	831.9	820	808.5	796.1	784.1	772
90000 kPa, x1 = 0.8501	827.4	815.6	803.8	791.5	780	768.3
100000 kPa, x1 = 0.1553	855.5	843.4	832.2	820	808.1	795.8
100000 kPa, x1 = 0.3249	847.8	836	824.9	812.5	801	788.6
100000 kPa, x1 = 0.4979	841.8	830	818.6	806.4	794.6	782.5
100000 kPa, x1 = 0.6748	836.6	824.7	813.5	801.3	789.7	778
100000 kPa, x1 = 0.8501	832.1	820.3	808.9	796.8	785.7	774.3
110000 kPa, x1 = 0.1553	859.4	847.8	836.7	824.8	813.3	801.4
110000 kPa, x1 = 0.3249	851.8	840.5	829.5	817.5	806.4	794.3
110000 kPa, x1 = 0.4979	845.9	834.5	823.1	811.4	800	788.3
110000 kPa, x1 = 0.6748	840.7	829.3	818.1	806.4	795.3	783.8
110000 kPa, x1 = 0.8501	836.3	824.9	813.7	801.9	791.3	780.2
120000 kPa, x1 = 0.1553	863.4	852	840.6	829.5	817.9	806.5
120000 kPa, x1 = 0.3249	855.8	844.8	833.4	822.3	811	799.4
120000 kPa, x1 = 0.4979	850	839	827.2	816.2	804.8	793.5
120000 kPa, x1 = 0.6748	844.8	833.7	822.2	811.3	800.1	789.1
120000 kPa, x1 = 0.8501	840.5	829.4	817.8	806.9	796.1	785.4
130000 kPa, x1 = 0.1553	867.2	856	845.1	833.9	822.6	811.4
130000 kPa, x1 = 0.3249	859.7	848.8	838	826.8	815.8	804.4
130000 kPa, x1 = 0.4979	854	843	831.8	819.3	809.7	798.6
130000 kPa, x1 = 0.6748	848.8	837.9	826.8	815.9	805.1	794.2
130000 kPa, x1 = 0.8501	844.5	833.6	822.5	811.5	801.1	790.6
140000 kPa, x1 = 0.1553	870.9	859.9	849	838.2	827	816.2
140000 kPa, x1 = 0.3249	863.4	852.9	842	831.1	820.2	809.2
140000 kPa, x1 = 0.4979	857.7	847.1	835.9	825.2	814.3	803.5
140000 kPa, x1 = 0.6748	852.6	842	831	820.4	809.6	799.1
140000 kPa, x1 = 0.8501	848.3	837.8	826.7	816	805.7	795.6
